Data on three molecules can be found in patent US20260042834A1, “ANTI-CORTICOTROPIN-RELEASING HORMONE ANTIBODIES AND POLYCYSTIC OVARY SYNDROME” (HBM ALPHA THERAPEUTICS, INC., priority 2022, published 2026).

As a reminder, the IC50 is the concentration at which inhibition is half-maximal. A higher IC50 goes with weaker potency in that assay. As usually defined, the kon is the second-order rate constant of association. Low readings indicate slower complex formation, high ones faster complex formation.

For experiment [1], the system named is human CRHR2. The experiment is described as follows: CRH-induced luciferase reporter blocking assay, CHO-CRE-hCRHR2 cells. It is filed as cell-based. Summed up:
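CHO-CRE reporter cells stably expressing mouse or human CRHR2 were treated with serially diluted antibodies (8 points, 1:4) plus CRH at final 5 nM (mCRHR2) or 0.1 nM (hCRHR2), 4-6 hours at 37° C. CRE-driven luciferase read by luminescence after 10 min with detection reagent.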
A general note: A reporter such as luciferase makes a cellular process visible.

The test system of experiment [2] is mouse CRHR2. The experiment is described as follows: CRH-induced luciferase reporter blocking assay, CHO-CRE-mCRHR2 cells. It is filed as cell-based. Summed up:
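CHO-CRE cells stably expressing mouse CRHR2 were seeded overnight, then given serially diluted antibodies (8 points, 1:4) together with CRH at 5 nM final. After 4–6 h at 37 °C, CRE-driven luciferase was read by Bio-Glo luminescence.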

Experiment [3] concerns human CRHR1 (hUCN1-induced). The experiment is described as follows: Human UCN1-induced luciferase reporter assay, CHO-CRE-hCRHR1 cells. It is filed as cell-based. Conditions: Table 10; 1 nM hUCN1. How it is done: CHO-CRE-hCRHR1 and CHO-CRE-hCRHR2 cells were harvested with trypsin-EDTA (Life Technologies, Cat #:12604-013). Cells were centrifuged at 1,000 rpm for 5 min and resuspended in growth medium. Cells were counted using a cell counter, seeded at 5,000 cells per 100 μl to 96-well flat plates, and incubated overnight. 50 μl of 4× serially diluted antibody (8 points, 1/3 diluted by growth medium) or CP 376395 hydrochloride (TOCRIS, Cat #:3212) (8 points, 1/10 diluted by growth medium) was added to plates, followed by 50 μl 4×hUCN1 (4× is 4 nM, final is 1 nM) to CHO-CRE-hCRHR1 cells or CHO-CRE-hCRHR2 cells. Plates were then incubated for 4-6 hours at 37° C. in a CO2 incubator. Following this, 60 μl of culture medium was removed, to which was added 60 μl of Bio-Glo luciferase, followed by incubation for 10 min at RT. Plates were then read in a luciferase plate reader (EnVision, PerkinElmer).

Experiment [4] deals with T1, biotinylated CRH (Homo sapiens, UniProt P06850).
T1 construct: purchased GL Biochem 784751
T1 sequence (P06850 154-194): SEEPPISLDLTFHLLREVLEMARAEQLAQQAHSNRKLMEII
Briefly: Affinity determination with Octet. In kind it is binding. The method in brief: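 Biolayer interferometry: 30 nM biotinylated CRH loaded onto streptavidin sensors, 2-fold antibody dilutions as analyte in PBS kinetics buffer. Association 180 s, dissociation 800 s, glycine pH 1.5 regeneration; double-referenced data fitted for affinity.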
Background: In BLI a coated tip is dipped into the sample, and binding shifts an interference pattern.

The mark [5] stands for this setting: CHO-CRE-hCRHR2 cells, 0.1 nM CRH.

Where “and” joins values, the source holds several entries; their conditions need not be identical. Equal entries are not always repeated. Some results are limits rather than exact numbers.

B1: PR005660: ΔPTM variant of Series 1 mAb PR004290; HCDR2 54EG55, LCDR1 36QS37 (antibody)
heavy: EVQLVESGGVLVQPGGSLRLSCAASGFTFSSYWMTWVRQAPGKGLEWVANIKQEGSEKYYVDSVKGRFTISRDNAKNSLFLQMNSLRAEDTAVYYCARTLIFDYWGQGTLVTVSSASTKGPSVFPLAPSSKSTSGGTAALGCLVKDYFPEPVTVSWNSGALTSGVHTFPAVLQSSGLYSLSSVVTVPSSSLGTQTYICNVNHKPSNTKVDKKV[human IgG1 Fc not listed]
light: DIVMTQSPLSLPVTPGEPASISCRSSQSLLHSTGYQSLEWYLQKPGQSPQLLIYLGSNRASGVPDRFSGSGSGTDFTLKISRVEAEDVGIYYCMQTLQTPITFGQGTRLEIKRTVAAPSVFIFPPSDEQLKSGTASVVCLLNNFYPREAKVQWKVDNALQSGNSQESVTEQDSKDSTYSLSSTLTLSKADYEKHKVYACEVTHQGLSSPVTKSFNRGEC
As for B1, the IC50 was 79.3 nM in experiment [1] (setting [5]) and 12.9 nM in experiment [2] (CHO-CRE-mCRHR2 cells, 5 nM CRH). The “CHO-CRE-hCRHR1 1 nM hUCH1 IC50” value in experiment [3] is listed as “No Inhibition”. In addition, in experiment [4], the “kdis” value was 5.59e-05 s⁻¹ and 5.12e-05 s⁻¹.

B2: PR004290: Series 1 anti-CRH mAb from hybridoma clone 28b3 (CRH knockout H2L2 mice), recombinant with human IgG1 wildtype Fc (antibody)
heavy: EVQLVESGGVLVQPGGSLRLSCAASGFTFSSYWMTWVRQAPGKGLEWVANIKQDGSEKYYVDSVKGRFTISRDNAKNSLFLQMNSLRAEDTAVYYCARTLIFDYWGQGTLVTVSSASTKGPSVFPLAPSSKSTSGGTAALGCLVKDYFPEPVTVSWNSGALTSGVHTFPAVLQSSGLYSLSSVVTVPSSSLGTQTYICNVNHKPSNTKVDKKV[human IgG1 Fc not listed]
light: DIVMTQSPLSLPVTPGEPASISCRSSQSLLHSTGYNSLEWYLQKPGQSPQLLIYLGSNRASGVPDRFSGSGSGTDFTLKISRVEAEDVGIYYCMQTLQTPITFGQGTRLEIKRTVAAPSVFIFPPSDEQLKSGTASVVCLLNNFYPREAKVQWKVDNALQSGNSQESVTEQDSKDSTYSLSSTLTLSKADYEKHKVYACEVTHQGLSSPVTKSFNRGEC
In the case of B2, the IC50 in experiment [1] (setting [5]) is 3.77 nM; in experiment [2] (CHO-CRE-mCRHR2 cells, 5 nM CRH), 8.56 nM and 8.75 nM and 4.54 nM and 7 nM and 4.91 nM. In experiment [3], the “CHO-CRE-hCRHR1 1 nM hUCH1 IC50” value is listed as “No Inhibition”.

B3: PR302341-28: Series 10 humanized, PTM-removed anti-CRH mAb (Table 9), scaled up for in vivo studies (antibody)
heavy: QVQLVQSGAEVKKPGASVKVSCKASGYTFTDYFMKWVRQAPGQGLEWMGVINPNQGDIFYNQKFKGRVTMTVDKSISTAYMELSRLRSDDTAVYYCARGTDRALFAYWGQGTLVTVSSASTKGPSVFPLAPSSKSTSGGTAALGCLVKDYFPEPVTVSWNSGALTSGVHTFPAVLQSSGLYSLSSVVTVPSSSLGTQTYICNVNHKPSNTKVDKKV[human IgG1 Fc not listed]
light: DVVMTQSPLSLPVTLGQPASISCRSGQSIVHSDGNTYLEWYQQRPGQSPRLLIYKVSNRFSGVPDRFSGSGSGTDFTLKISRVEAEDLGVYYCFQGSHIPWTFGGGTKVEIKRTVAAPSVFIFPPSDEQLKSGTASVVCLLNNFYPREAKVQWKVDNALQSGNSQESVTEQDSKDSTYSLSSTLTLSKADYEKHKVYACEVTHQGLSSPVTKSFNRGEC
Take B3: the IC50 is approximately 2.27 nM in experiment [1] (Table 9, hCRHR2) and 2.28 nM in experiment [2] (Table 9, mCrhr2). The “kdis” value in experiment [4] was less than 1e-07 s⁻¹. Moreover, in experiment [4], the “kon” value is 2.63e+06 M⁻¹ s⁻¹.
